Earlier results on one substance are cited in patent US9427426B2 (priority 2008, dated 2016).

A word on the half-life: it is how long it takes for the measured level to halve.

For the data set the following is noted: in man; cited from earlier work.

Take mercury: the half-life was 40 to 70 days.
